Assay results: BindingDB's records for doi:10.1016/j.chembiol.2011.11.010 (Harvard Medical School, 2012)

Protein sequences, listed by entry. Tags and fused reporters are not part of them. Lines headed by an entry give the natural chain unless they say otherwise; changes in a name come on top.
UniProt P53779: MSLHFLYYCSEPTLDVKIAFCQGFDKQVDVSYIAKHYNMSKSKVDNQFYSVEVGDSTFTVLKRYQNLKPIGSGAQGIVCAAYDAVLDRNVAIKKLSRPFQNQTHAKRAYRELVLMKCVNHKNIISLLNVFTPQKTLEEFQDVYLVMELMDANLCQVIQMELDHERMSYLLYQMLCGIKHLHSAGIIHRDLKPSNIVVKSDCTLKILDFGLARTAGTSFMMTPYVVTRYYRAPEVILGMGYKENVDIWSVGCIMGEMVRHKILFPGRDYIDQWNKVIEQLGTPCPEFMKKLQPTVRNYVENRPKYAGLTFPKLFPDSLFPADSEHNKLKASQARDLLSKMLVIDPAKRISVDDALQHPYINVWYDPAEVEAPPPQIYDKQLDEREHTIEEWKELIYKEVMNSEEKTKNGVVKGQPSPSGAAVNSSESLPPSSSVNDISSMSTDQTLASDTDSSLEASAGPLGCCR

Target: Mitogen-activated protein kinase 10 (Homo sapiens, UniProt P53779)
Test: JNK Kinase Assay

## Cc1cc(NC(=O)c2cccc(NC(=O)/C=C/CN(C)C)c2)ccc1Nc1nccc(-c2cccnc2)n1 [JNK-IN-8]
  IC50: 0.98 nM
